{"source": "ChEMBL document CHEMBL5113513", "about": "“Selective Inhibitors of Medium-Size S1' Pocket Matrix Metalloproteinases: A Stepping Stone of Future Drug Discovery” (J Med Chem, 2022)", "biological_target": "Collagenase 3 (Homo sapiens, UniProt P45452)"}
{"smiles": "CN1C(=O)N(C[C@H](C(=O)NO)[C@H](CC2CCCC2)C(=O)N2CCCCC2)C(=O)C1(C)C", "values": [{"measurement": "Ki", "result": 3, "unit": "nM"}]}
